Measurements as given in ChEMBL document CHEMBL5726859, “5-[(piperazin-1-yl)-3-oxo-propyl]-imidazolidine-2,4-dione derivatives as ADAMTS inhibitors for the treatment of osteoarthritis” (2018).
pIC50: −log10 of the molar value.

What was measured:
[1] = target: T1, Interstitial collagenase (Homo sapiens, UniProt P03956)
T1 sequence (P03956 whole entry): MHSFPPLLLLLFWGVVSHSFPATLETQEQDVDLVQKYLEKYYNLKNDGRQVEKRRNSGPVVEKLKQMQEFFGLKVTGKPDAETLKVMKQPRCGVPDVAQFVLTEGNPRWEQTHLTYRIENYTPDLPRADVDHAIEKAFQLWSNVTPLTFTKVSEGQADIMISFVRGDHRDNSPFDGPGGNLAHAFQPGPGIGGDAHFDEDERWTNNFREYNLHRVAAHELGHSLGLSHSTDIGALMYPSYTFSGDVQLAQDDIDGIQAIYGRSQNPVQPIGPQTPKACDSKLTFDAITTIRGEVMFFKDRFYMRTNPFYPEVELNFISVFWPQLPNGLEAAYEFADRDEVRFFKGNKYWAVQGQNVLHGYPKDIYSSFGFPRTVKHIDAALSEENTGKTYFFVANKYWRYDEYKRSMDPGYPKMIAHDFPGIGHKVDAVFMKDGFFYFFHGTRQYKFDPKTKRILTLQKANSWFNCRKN

[2] = target: Collagenase 3 (Homo sapiens, UniProt P45452)

Row | SMILES | pIC50 [1] | pIC50 [2]
1 | C[C@H]1CN(C(=O)CC[C@@]2(C3CC3)NC(=O)NC2=O)CCN1c1cc(F)cc(F)c1 | < 4.52 | 
2 | Cc1cc(Cl)c(Cl)cc1N1CCN(C(=O)CCC2(C)NC(=O)NC2=O)CC1 (configuration not stated) |  | < 4.70
